Assay results from patent US20240400670A1 (JIANGSU HENGRUI PHARMACEUTICALS, published 2024).

T1: human IL-23 (Sino Biological, CT048-H08H) (human, UniProt Q9NPF7 20-189; P29460 23-328)
T1 construct: also called human IL-23 protein; Human IL-23 p19
T1 sequence (looked up) 1: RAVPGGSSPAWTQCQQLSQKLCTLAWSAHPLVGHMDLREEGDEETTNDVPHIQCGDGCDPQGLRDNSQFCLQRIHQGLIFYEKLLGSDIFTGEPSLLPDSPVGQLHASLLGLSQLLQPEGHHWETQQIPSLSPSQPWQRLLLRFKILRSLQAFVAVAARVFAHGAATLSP
T1 sequence (looked up) 2: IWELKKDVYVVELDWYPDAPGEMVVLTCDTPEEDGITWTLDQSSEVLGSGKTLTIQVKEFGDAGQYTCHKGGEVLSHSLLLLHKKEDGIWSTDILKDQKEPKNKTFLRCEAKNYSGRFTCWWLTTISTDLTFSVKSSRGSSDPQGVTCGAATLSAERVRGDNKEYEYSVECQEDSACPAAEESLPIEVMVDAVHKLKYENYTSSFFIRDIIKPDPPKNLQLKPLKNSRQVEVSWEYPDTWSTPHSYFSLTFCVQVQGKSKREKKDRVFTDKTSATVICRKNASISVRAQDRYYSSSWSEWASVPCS

T2: IL-23 (R&D Systems, 1290-IL-010) (UniProt Q9NPF7 20-189; P29460 23-328)
T2 sequence (looked up) 1: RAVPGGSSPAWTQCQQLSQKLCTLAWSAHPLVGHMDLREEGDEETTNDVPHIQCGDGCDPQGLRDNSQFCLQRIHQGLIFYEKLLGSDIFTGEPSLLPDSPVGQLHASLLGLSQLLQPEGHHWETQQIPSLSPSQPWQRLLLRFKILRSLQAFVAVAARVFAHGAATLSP
T2 sequence (looked up) 2: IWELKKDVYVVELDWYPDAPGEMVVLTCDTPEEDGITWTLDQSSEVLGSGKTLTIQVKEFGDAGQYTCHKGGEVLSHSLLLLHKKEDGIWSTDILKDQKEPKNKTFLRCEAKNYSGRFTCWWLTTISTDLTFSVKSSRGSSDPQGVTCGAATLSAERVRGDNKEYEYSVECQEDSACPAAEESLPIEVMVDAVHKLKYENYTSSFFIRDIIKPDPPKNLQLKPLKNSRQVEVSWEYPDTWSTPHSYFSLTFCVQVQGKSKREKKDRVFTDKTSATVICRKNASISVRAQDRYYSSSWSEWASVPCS


Experiments:
[1] = biological target: T1, human IL-23 (Sino Biological, …); assay: SPR (Biacore), Protein A capture of sample, 1:1 model
Procedure: A certain amount of test sample was subjected to affinity capture by a biosensor chip Protein A (GE, 29127556), and then antigens at a series of concentration gradients were allowed to flow on the surface of the chip. The reaction signals were detected in real time by using Biacore (GE, 8 K) to obtain association and dissociation curves. After the dissociation was completed for each cycle, the biochip was washed and regenerated with a 10 mM glycine-hydrochloric acid solution at pH 1.5 (GE, BR-1003-54). Fitting was performed based on the experimental data using BlAevaluation version 4.1 software with a 1:1 model, and affinity values were obtained. The relevant antigen proteins used in this assay are as follows: human IL-23 (Sino biological, CT048-H08 H), human BAFF (Sino biological, 10056-FINCH), human APRIL (R&D Systems, 5860-AP-010/ CF), cynomolgus monkey IL-23 (Acro Biosystems, ILB-CM52 W8), cynomolgus monkey BAFF (Kactus, BAF-CM412), cynomolgus monkey APRIL (Kactus, APR-CM410 B), mouse IL-23 (R&D Systems, 1887-ML/CF), mouse BAFF (Acro Biosystems, BAF-M521 y), and mouse APRIL (R&D Systems, 7907-AP/CF).

[2] = biological target: T1, human IL-23 (Sino Biological, …); assay: competition ELISA, blocks IL-23/IL-23R; IL-23R coated, biotin-IL-23 + sample gradient
Procedure: The blocking activity of the anti-IL23 antibodies and the fusion proteins thereof for receptors and ligands of IL-23/ IL-23R, BAFF/BAFF-R, BAFF/BCMA, BAFF/TACI, APRIL/BCMA, APRIL/TACI and the like was detected by Elisa. The specific procedures are as follows:
The receptor protein was diluted to 2 μg/mL with a PBS (BasalMedia, B320) buffer at pH 7.4 and added to a 96-well microplate (Corning, 3590) at 100 μL/well. The plate was incubated at 4° C. overnight. After the liquid was discarded, 1 % Casein blocking solution (Thermo, 37528) was added at 200 μL/well for blocking, and the plate was incubated at 37° C. for 2 h. After the blocking was complete, the blocking solution was discarded, and the plate was washed 3 times with a PBST buffer (pH 7.4 PBS containing 0.1 % tween-20) for later use. After the biotin-labeled ligand protein at a fixed concentration was mixed with an antibody or fusion protein diluted in a gradient, the mixture was pre-incubated at 37° C. for 30 min and then added to the blocked microplate. The plate was incubated at 37° C. for 1.5 h. After the incubation was complete, the plate was washed 3 times with PBST. Streptavidin-HRP (Invitrogen, 434323, diluted at 1:4000) was added at 100 μL/well, and the plate was incubated at 37° C. for 1 h. The supernatant was removed. After the plate was washed 3 times with PBST, TMB chromogenic substrate (KPL, 5120-0077) was added at 100 μL/well, and the plate was incubated at room temperature for 10⁻¹⁵ min. 1 M H₂SO₄ was added at 50 μL/well to terminate the reaction. The absorbance values at 450 nm were taken using a microplate reader. Curves for the inhibition of binding of the ligands to the receptors were fitted using software, and the IC₅₀ values were calculated. The source information of the ligand proteins used in this test example is as follows: IL-23 (Sino Biological, CT048-H08 H), BAFF (Sino Biological, 10056-HNCH), APRIL (R&D Systems, 5860-AP-010/ CF).

[3] = biological target: T1, human IL-23 (Sino Biological, …); assay: cell-based or functional assay
[4] = biological target: T2, IL-23 (R&D Systems, 1290-IL-010); assay: cell-based or functional assay
[5] = biological target: T1, human IL-23 (Sino Biological, …); assay: ELISA, sample coated, IL-23 titrated, anti-His-HRP
Procedure: The binding activity of the test molecules for IL-23 p19 and BAFF was measured by Elisa (coating the test molecules). The specific procedures are as follows:
The test sample was diluted to 2 μg/mL with a PBS (BasalMedia, B320) buffer at pH 7.4 and added to a 96-well microplate (Coming, 3590) at 100 μL/well. The plate was incubated at 4° C. overnight. After the liquid was discarded, 5 % skim milk (BD, 232100) diluted with PBS was added at 300 μL/well for blocking, and the mixture was incubated at 37° C. for 2 h. After the blocking was completed, the blocking solution was discarded, and the plate was washed 3 times with a PBST buffer (pH 7.4, PBS containing 0.1 % tween-20). The IL-23 (Sino Biological, CT048-H08 H) or BAFF (ACROBiosystems, BAF-H52 D4) solution diluted in a gradient was added at 100 pt/well, and the mixture was incubated at 37° C. for 1 h. After the incubation, the plate was washed 3 times with PBST. When the binding to IL-23 and BAFF was to be detected, Anti-His-HRP (Sino biological, 105327-MM02 T-H, diluted at 1:2000) was added at 100 μL/well, and the mixture was incubated at 37° C. for 1 h. […] The absorbance values at 450 nm were taken using a microplate reader. The binding curves of antibodies to antigens were fitted using software, and the EC₅₀ values were calculated.

Row | Binder | Kd [1] | koff [1] | kon [1] | IC50 [2] | Activity in inhibiting proliferation of BaF3-IL-23R cells (IC50, nM) [3] | IC50 for inhibiting IL-17 secretion [4] | EC50 [5]
1 | Hu29-10 (antibody, human IgG1, kappa, L234A L235A, V domains shown, humanized mAb29, IgG1/kappa) VH: EVTLKESGPVLVKPTETLTLTCTVSGFSLTSYAISWVRQPPGKALEWLGVIWTGGGTNYNSGIKSRLTISKDNSKSQVVLTMTNMDPVDTARYYCVREGDYGSYAGAMDYWGQGTTVTVSS VL: DIVLTQSPDSLAVSLGERATINCRASESVDYYGISSMHWFQQKPGQPPKLLIYRASNLESGIPDRFSGSGSRTDFTLTISSLQAEDVAVYYCQQANKDPYTFGGGTKVEIKR | 0.0239 nM | 8.7e-05 s⁻¹ | 3.65e+06 M⁻¹ s⁻¹ | 0.424 nM | 0.086 nM |  | 
2 | Hu29-1 (antibody, human IgG1, kappa, L234A L235A, V domains shown, humanized mAb29, IgG1/kappa) VH: EVTLKESGPVLVKPTETLTLTCTVSGFSLSSYAISWIRQPPGKALEWLGVIWTGGGTNYNSGIKSRLTISKDTSKSQVVLTMTNMDPVDTATYYCVREGDYGSYAGAMDYWGQGTTVTVSS VL: DIVMTQSPDSLAVSLGERATINCRASESVDYYGISSMHWFQQKPGQPPKLLIYRASNLESGVPDRFSGSGSRTDFTLTISSLQAEDVAVYYCQQANKDPYTFGGGTKVEIKR | 0.0393 nM | 0.000133 s⁻¹ | 3.39e+06 M⁻¹ s⁻¹ | 0.474 nM | 0.0711 nM |  | 
3 | Hu29-2 (antibody, human IgG1, kappa, L234A L235A, V domains shown, humanized mAb29, IgG1/kappa) VH: EVTLKESGPVLVKPTETLTLTCTVSGFSLSSYAISWIRQPPGKALEWLGVIWTGGGTNYNSGIKSRLTISKDTSKSQVVLTMTNMDPVDTATYYCVREGDYGSYAGAMDYWGQGTTVTVSS VL: DIVLTQSPDSLAVSLGERATINCRASESVDYYGISSMHWFQQKPGQPPKLLIYRASNLESGIPDRFSGSGSRTDFTLTISSLQAEDVAVYYCQQANKDPYTFGGGTKVEIKR | 0.0308 nM | 0.000108 s⁻¹ | 3.51e+06 M⁻¹ s⁻¹ | 0.397 nM | 0.0623 nM |  | 
4 | Hu29-5 (antibody, human IgG1, kappa, L234A L235A, V domains shown, humanized mAb29, IgG1/kappa) VH: EVTLKESGPVLVKPTETLTLTCTVSGFSLTSYAISWIRQPPGKALEWLGVIWTGGGTNYNSGIKSRLTISKDNSKSQVVLTMTNMDPVDTATYYCVREGDYGSYAGAMDYWGQGTTVTVSS VL: DIVMTQSPDSLAVSLGERATINCRASESVDYYGISSMHWFQQKPGQPPKLLIYRASNLESGVPDRFSGSGSRTDFTLTISSLQAEDVAVYYCQQANKDPYTFGGGTKVEIKR | 0.0367 nM | 0.000125 s⁻¹ | 3.4e+06 M⁻¹ s⁻¹ | 0.388 nM | 0.0553 nM |  | 
5 | Hu29-6 (antibody, human IgG1, kappa, L234A L235A, V domains shown, humanized mAb29, IgG1/kappa) VH: EVTLKESGPVLVKPTETLTLTCTVSGFSLTSYAISWIRQPPGKALEWLGVIWTGGGTNYNSGIKSRLTISKDNSKSQVVLTMTNMDPVDTATYYCVREGDYGSYAGAMDYWGQGTTVTVSS VL: DIVLTQSPDSLAVSLGERATINCRASESVDYYGISSMHWFQQKPGQPPKLLIYRASNLESGIPDRFSGSGSRTDFTLTISSLQAEDVAVYYCQQANKDPYTFGGGTKVEIKR | 0.0255 nM | 9.85e-05 s⁻¹ | 3.86e+06 M⁻¹ s⁻¹ | 0.437 nM | 0.089 nM |  | 
6 | Hu29-9 (antibody, human IgG1, kappa, L234A L235A, V domains shown, humanized mAb29, IgG1/kappa) VH: EVTLKESGPVLVKPTETLTLTCTVSGFSLTSYAISWVRQPPGKALEWLGVIWTGGGTNYNSGIKSRLTISKDNSKSQVVLTMTNMDPVDTARYYCVREGDYGSYAGAMDYWGQGTTVTVSS VL: DIVMTQSPDSLAVSLGERATINCRASESVDYYGISSMHWFQQKPGQPPKLLIYRASNLESGVPDRFSGSGSRTDFTLTISSLQAEDVAVYYCQQANKDPYTFGGGTKVEIKR | 0.0304 nM | 0.000106 s⁻¹ | 3.48e+06 M⁻¹ s⁻¹ | 0.397 nM | 0.0561 nM |  | 
7 | Hu29-15 (antibody, human IgG1, kappa, L234A L235A, humanized mAb29, IgG1/kappa) heavy: not shown light: DIVLTQSPDSLAVSLGERATINCRASESVDYYGISSMHWFQQKPGQPPKLLIYRASNLESGIPARFSGSGSRTDFTLTISSLQAEDVAVYYCQQANKDPYTFGGGTKVEIKRTVAAPSVFIFPPSDEQLKSGTASVVCLLNNFYPREAKVQWKVDNALQSGNSQESVTEQDSKDSTYSLSSTLTLSKADYEKHKVYACEVTHQGLSSPVTKSFNRGEC | 0.0223 nM | 7.02e-05 s⁻¹ | 3.15e+06 M⁻¹ s⁻¹ | 0.41 nM | 0.216 nM | 0.0195 nM | 1.19 nM
8 | Hu29-16 (antibody, human IgG1, kappa, L234A L235A, humanized mAb29, IgG1/kappa) heavy: not shown light: DIVLTQSPDSLAVSLGQRATINCRASESVDYYGISSMHWFQQKPGQPPKLLIYRASNLESGIPARFSGSGSRTDFTLTISSLQAEDVAVYYCQQANKDPYTFGGGTKVEIKRTVAAPSVFIFPPSDEQLKSGTASVVCLLNNFYPREAKVQWKVDNALQSGNSQESVTEQDSKDSTYSLSSTLTLSKADYEKHKVYACEVTHQGLSSPVTKSFNRGEC | 0.0183 nM | 7.99e-05 s⁻¹ | 4.36e+06 M⁻¹ s⁻¹ |  | 0.225 nM |  | 
9 | Hu29-23 (antibody, human IgG1, kappa, L234A L235A, humanized mAb29, IgG1/kappa) heavy: not shown light: DIVLTQSPDSLAVSLGERATINCRASESVDYYGISSMHWFQQKPGQPPKLLIYRASNLESGIPARFSGSGSRTDFTLTISSLQAEDVAVYYCQQANKDPYTFGGGTKVEIKRTVAAPSVFIFPPSDEQLKSGTASVVCLLNNFYPREAKVQWKVDNALQSGNSQESVTEQDSKDSTYSLSSTLTLSKADYEKHKVYACEVTHQGLSSPVTKSFNRGEC | 0.0226 nM | 8.57e-05 s⁻¹ | 3.79e+06 M⁻¹ s⁻¹ |  | 0.118 nM |  | 
